# According to US8778951B2, “Heteroaryl compounds and their uses” (Novartis AG, priority 2009, dated 2014):
# By UniProt entry, the sequences of proteins in these tests, tags left out.
# UniProt P50750, whole entry: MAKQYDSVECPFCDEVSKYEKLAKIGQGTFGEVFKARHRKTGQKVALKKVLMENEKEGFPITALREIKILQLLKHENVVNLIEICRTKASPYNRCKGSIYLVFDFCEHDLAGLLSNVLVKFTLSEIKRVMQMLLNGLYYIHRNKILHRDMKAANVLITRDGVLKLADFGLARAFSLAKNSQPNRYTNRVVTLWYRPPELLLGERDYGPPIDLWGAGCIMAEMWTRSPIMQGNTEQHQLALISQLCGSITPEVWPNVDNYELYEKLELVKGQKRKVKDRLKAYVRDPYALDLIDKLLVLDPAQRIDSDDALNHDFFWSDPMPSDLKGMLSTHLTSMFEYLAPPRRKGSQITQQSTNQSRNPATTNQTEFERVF
# Molecular target: Cdk9/cyclinT1 (Homo sapiens (Human), UniProt P50750)
# Assay: Cdk9/CyclinT1 IMAP Protocol (fluorescence polarization kinase assay)
# Type: biochemical
# Settings: Table 2; generated using one of the two Cdk9/cyclinT1 assays (IMAP or Alpha Screen), not specified which; unit inferred
# Experimental: Cdk9/CyclinT1 IMAP Protocol
# The biological activity of the compounds of the invention can be determined using the assay described below.
# Cdk9/cyclinT1 is purchased from Millipore, cat #14-685. The final total protein concentration in the assay 4 nM. […] The final concentration of peptide substrate is 100 nM. The ATP substrate (Adenosine-5′-triphosphate) is purchased from Roche Diagnostics, cat#1140965. The final concentration of ATP substrate is 6 uM. IMAP (Immobilized Metal Assay for Phosphochemicals) Progressive Binding reagent is purchased from Molecular Devices, cat#R8139. Fluorescence polarization (FP) is used for detection. The 5TAMRA-cdk7tide peptide is phosphorylated by Cdk9/cyclinT1 kinase using the ATP substrate. The Phospho-5TAMRA-cdk7tide peptide substrate is bound to the IMAP Progressive Binding Reagent. The binding of the IMAP Progressive Binding Reagent changes the fluorescence polarization of the 5TAMRA-cdk7tide peptide which is measured at an excitation of 531 nm and FP emission of 595 nm. Assays are carried out in 100 mM Tris, pH=7.2, mM MgCl2, 0.05% NaN3, 0.01% Tween-20, 1 mM dithiothreitol and 2.5% dimethyl sulfoxide. IMAP Progressive Binding Reagent is diluted 1:800 in 100% 1× Solution A from Molecular Devices, cat#R7285.
# General protocol is as follows: To 10 ul of cdk9/cyclinT1, 0.5 ul of test compound in dimethyl sulfoxide is added. 5TAMRA-cdk7tide and ATP are mixed. 10 ul of the 5TAMRA-cdk7tide/ATP mix is added to start the reaction. The reaction is allowed to proceed for 4.5 hrs. 60 uL of IMAP Progressive Binding Reagent is added. After >1 hr of incubation, plates are read on the Envision 2101 from Perkin-Elmer. The assay is run in a 384-well format using black Corning plates, cat#3573.
row,SMILES,IC50
1,"CN(C)[C@H]1CC[C@H](Nc2cc(-c3cccc(NCc4cccc(F)c4)n3)c(Cl)cn2)CC1 [Compound 18, 5′-chloro-N2′-(trans-4-(dimethylamino)cyclohexyl)-N6-(3-fluorobenzyl)-2,4′-bipyridine-2′,6-diamine]",7.95 nM
2,"N[C@H]1CC[C@H](Nc2cc(-c3cccc(NCC4CCS(=O)(=O)CC4)n3)c(Cl)cn2)CC1 [Compound 230, N-(4-Amino-cyclohexyl)-5′-chloro-N-(1,1-dioxo-hexahydro-1-thiopyran-4-yl-methyl)-[2,4′]bipyridinyl-6,2′-diamine]",7.95 nM
3,Clc1cnc(N[C@H]2CC[C@H](NC[C@@H]3CCCO3)CC2)cc1-c1nc(NCC2CCOCC2)ccc1Cl [Compound 270],7.94 nM
4,NCCCCNc1cc(-c2cccc(NCc3cccc(F)c3)n2)c(Cl)cn1 [Compound 145],7.95 nM
5,"COC[C@@H](C)N[C@H]1CC[C@H](Nc2cc(-c3cccc(NCC4COCC(C)(C)O4)n3)c(Cl)cn2)CC1 (stereo partly drawn) [Compound 316, 5′-chloro-N6-((6,6-dimethyl-1,4-dioxan-2-yl)methyl)-N2′-(trans-4-((R)-1-methoxypropan-2-yl-amino)cyclohexyl)-2,4′-bipyridine-2′,6-diamine]",9 nM
6,"N#CC1(CNc2nc(-c3cc(N[C@H]4CC[C@H](O)CC4)ncc3Cl)ccc2F)CCOCC1 [Compound 357, 4-((5′-chloro-5-fluoro-2′-((1r,4r)-4-hydroxycyclohexylamino)-2,4′-bipyridin-6-ylamino)methyl)tetrahydro-2H-pyran-4-carbonitrile]",0.16 nM
7,"N[C@H]1CC[C@H](Nc2cc(-c3nc(NCC4CCOCC4)ccc3F)c(Cl)cn2)CC1 [Compound 282, N2′-(trans-4-aminocyclohexyl)-5′-chloro-3-fluoro-N6-((tetrahydro-2H-pyran-4-yl)methyl)-2,4′-bipyridine-2′,6-diamine]",7.94 nM
8,CNC[C@@H]1CC[C@H](Nc2cc(-c3cccc(NCc4cccc(F)c4)n3)c(Cl)cn2)C1 [Compound 238],13.6 nM
9,CCNC[C@@H]1CC[C@H](Nc2cc(-c3cccc(NCc4cccc(F)c4)n3)c(Cl)cn2)C1 [Compound 239],18.4 nM
